Screening results (PubChem)
Nrf2 ARE act = activators of Nrf2 (ARE) signaling; AREc32 ARE-luciferase reporter (MCF7-derived line), luminescence, 24 h; Potency, µM (series often up to 46.1 µM), for the others: top-dose activation, hits mostly activators; 410,000 tested, 0.31% active; AID 624171; further: potency means the concentration at half of the fitted maximal effect; % of control where 0% means no effect; nearly all actives have a fitted effect of over 65% in size
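AREc32_Fluc, 1000 cells/well, OPTI-MEM + 5% FBS, o/n 37 deg C 5% CO2; 23 nL cpd by pin tool, 24 hr; Steady-Glo 30 min RT, luminescence.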
TCR activator = activators of T cell receptors; primary human leukocytes, anti-CD3, IL-2 HTRF, 48 h; Potency, µM (highest dose often 9.22 µM), for inactives: top-dose activation of IL-2 secretion, actives largely listed as activators; 330,000 tested, under 10 active; further: % of control where 0% means no effect
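Compounds are tested in HTS on primary human leukocytes co-incubated with a-CD3 beads for 48 hr. IL-2 output is measured by time-resolved FRET.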
miR-21 FLuc = miR-21 reporter, rising signal | AID 2288 | HeLa miR-21 FLuc reporter, luciferase, 48 h | 340,000 tested, under 10 active | Potency, µM (titrated, usually from 38.3 µM), for the others: at the top dose reporter change, positive = more light; active = well fitted rising curve with a large enough effect; inconclusive = small, poorly fitted or top-dose-only effect; inactive = no such curve, though single readings can be large or run the other way;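 also: % of control where 0% means no effect; miR-21 action dims this reporter so a rising signal means less miR-21 action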
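Compounds were titrated across several concentrations (up to approximately 40 uM) and incubated 48 hours with HeLa miR-21-FLuc reporter cells (miR-21 target sequence downstream of FLuc, endogenous miR-21). Readout was firefly luciferase luminescence after lytic detection reagent.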
A549 tox = counter-screen for Nrf2 inhibitors: cytotoxicity in A549 cells | 390,000 tested, 0.16% active | A549 ARE-Fluc cells, CellTiter-Fluor viability, 18-24 h | Potency, µM (doses to about 46 µM), for inactives: at the highest dose activity change, negative = cytotoxicity, most hits filed as inhibitors | AID 504648; further: potency means the concentration at half of the fitted maximal effect; on the % scale 0 is the no-effect control and ±100 the full control effect
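A549 ARE_Fluc cells in 5% FBS OPTI-MEM were exposed to compounds in concentration-response for 18-24 h at 37 deg C. Viability was read by CellTiter-Fluor fluorescence (Ex 405/Em 525) after 30 min, before the luciferase read.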
Nrf2 inh = Nrf2 pathway inhibition | A549 ARE-Fluc reporter, luciferase luminescence, 18-24 h | Potency, µM (top dose mostly 46 µM), inactives show top-dose activity change, negative = inhibition, most hits filed as inhibitors | 360,000 tested, 2.1% active | AID 504444; further: potency means the concentration at half of the fitted maximal effect; on the % scale 0 is the no-effect control and ±100 the full control effect; nearly all actives have a fitted effect of over 60% in size
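A549 ARE_Fluc cells, 5000/well, 5% FBS OPTI-MEM; compounds in dose-response, 18-24 h at 37 °C/5% CO2; CellTiter-Fluor viability read (Ex 405/Em 525), then BugLite luciferase luminescence = Nrf2 activity.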
ClpP mod = qHTS Assay for Activators of ClpP; ATP-dependent Clp protease proteolytic subunit (Bacillus subtilis (strain 168)), P80244; purified B. subtilis ClpP, FRET peptide cleavage, 20 min; Potency, µM (doses to about 57.5 µM), for the others: top-dose activity change, negative = active; 340,000 tested, 1.9% active; active means well fitted falling curve with a large enough effect; inconclusive means small, poorly fitted or top-dose-only effect; inactive means no such curve, though single readings can be large or run the other way; further: potency means the concentration at half of the fitted maximal effect; the source files actives as falling curves though it sought activators and does not explain the sign; nearly all actives have a fitted effect of over 65% in size
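ClpP 10 microg/mL final, pH 8 Tris/KCl buffer with BSA, glycerol, Tween-20; compound pinned in; FRET-FV substrate; RT 20 min; Ex320/Em430; ΔFRET vs ADEP 5.8 microM, DMSO, no enzyme.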
Active calls of the source: *; ? = inconclusive; nt = no result; [ ] = remark or other dose. A selection: hits, their analogues and other compounds. The true share with any hit is near 3.7%. Unless noted, the call rests on the fitted dose curve; in most records, active means well fitted curve in the direction sought with a large enough effect; inconclusive means small, poorly fitted or top-dose-only effect, or another doubt; inactive means no such curve, though single readings can be large; an effect the other way counts as inactive or inconclusive.

The chains behind the UniProt entries cited, without tags or fusion partners.
ATP-dependent Clp protease proteolytic subunit (Bacillus subtilis (strain 168)), P80244, UniProt P80244, whole entry, looked up: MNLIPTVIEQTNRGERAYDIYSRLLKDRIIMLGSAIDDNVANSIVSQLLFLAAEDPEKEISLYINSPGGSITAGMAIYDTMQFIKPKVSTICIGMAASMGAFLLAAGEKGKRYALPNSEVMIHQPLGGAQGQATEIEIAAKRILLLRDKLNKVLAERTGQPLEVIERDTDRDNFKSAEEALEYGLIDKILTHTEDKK

Short keys: A = Nrf2 ARE act; B = TCR activator; C = miR-21 FLuc; D = A549 tox; E = Nrf2 inh; F = ClpP mod
COc1ccc(N=C2C(=S)N(c3ccc(OC)cc3)C(=NS(=O)(=O)c3ccccc3)N2c2ccccc2)cc1
  A: 3.3%; B: 3.9%; C: nt; D: -4.8%; E: ?; F: 28.2µM*

Cc1ccc(NC(=O)CN(C)C(=O)c2cccc(Br)c2)cc1
  A: 0.3%; B: -1.5%; C: -6.9%; D: 0.3%; E: ?; F: nt

CCCCSc1nc(-c2ccc(OC)cc2)ccc1C#N
  A: 9.7%; B: nt; C: 0.6%; D: 22.6%; E: 23.9%; F: 4.0%

CCSc1nc(-c2ccc(OC)cc2)ccc1C#N
  A: 7.0%; B: -5.3%; C: -15.0%; D: -4.8%; E: 13.5%; F: 28.2µM*

CN1CCN(c2c(F)cc3c(=O)c(C(=O)O)cn4c3c2SCC4)CC1
  A: -0.6%; B: 4.1%[46.1 µM]; C: 0.6%; D: -1.5%; E: nt; F: 28.2µM*

CCNC(=S)N1CCN(C(c2ccccc2)c2ccccc2)CC1
  A: -0.3%; B: -56.4%; C: -0.3%; D: -12.4%; E: 25.9µM*; F: 0.3%

Cc1ccc(N2C(=O)C3C4CCC(O4)C3C2=O)c(OC(F)F)c1 (centres undefined)
  A: -0.4%; B: -4.8%; C: nt; D: 11.2%; E: 14.4%; F: -1.4%

CCCn1nc(C(=O)Nc2ccc3nc(N4CCOCC4)sc3c2)ccc1=O
  A: 2.6%; B: -8.8%; C: nt; D: -14.4%; E: 20.6µM*; F: -2.5%

O=C(Nc1ccc(C(=O)O)cc1)Nc1ccc([N+](=O)[O-])cc1
  A: -0.3%; B: -1.6%; C: -0.3%; D: -10.7%; E: 11.9%; F: 0.1%

O=C(O)c1ccc(Nc2ncc([N+](=O)[O-])cc2[N+](=O)[O-])cc1
  A: 4.2%; B: 0.6%; C: 0.3%; D: 18.4µM*; E: -13.2%; F: nt

CC(=O)Nc1nonc1-c1nc2ccccc2n1N(C(C)=O)C(C)=O
  A: -0.4%; B: 1.9%; C: 1.4%; D: -3.4%; E: 0.9%; F: 28.2µM*

CC(=O)Nc1nonc1-c1nc2ccccc2n1Cc1ccccc1Br
  A: 0.5%; B: nt; C: 5.4%; D: -11.3%; E: ?; F: 25.1µM*

COC(=O)c1sc2nc(C)nc(SCC(=O)Nc3sccc3C(N)=O)c2c1C
  A: 11.7%; B: nt; C: nt; D: 0.7%; E: ?; F: -19.0%

CCOC(=O)c1c(-c2ccc(F)cc2)csc1/N=C/N(C)C
  A: 2.8%; B: 0.9%; C: -20.2%; D: ?; E: 16.4µM*; F: 25.1µM*

CCOc1ccc(CCNC(=O)c2cc3ccccn3n2)cc1OCC
  A: 2.3%; B: 1.1%; C: 7.1%; D: -6.7%; E: 20.6µM*; F: -8.4%

3 consecutive compounds already listed:
Short keys: A = Nrf2 ARE act; B = TCR activator; C = miR-21 FLuc; D = A549 tox; E = Nrf2 inh; F = ClpP mod
CC(=O)Nc1nonc1-c1nc2ccccc2n1N(C(C)=O)C(C)=O
  A: -0.4%; B: 1.9%; C: 1.4%; D: -3.4%; E: 0.9%; F: 28.2µM*

CC(=O)Nc1nonc1-c1nc2ccccc2n1Cc1ccccc1Br
  A: 0.5%; B: nt; C: 5.4%; D: -11.3%; E: ?; F: 25.1µM*

COC(=O)c1sc2nc(C)nc(SCC(=O)Nc3sccc3C(N)=O)c2c1C
  A: 11.7%; B: nt; C: nt; D: 0.7%; E: ?; F: -19.0%

Further entries:
Short keys: A = Nrf2 ARE act; B = TCR activator; C = miR-21 FLuc; D = A549 tox; E = Nrf2 inh; F = ClpP mod
COc1ccc(Cl)cc1NC(=O)c1cc2ccccn2n1
  A: 5.62µM*; B: nt; C: -43.9%; D: 12.8%; E: ?; F: 166.9%

CCCCOc1ccccc1NC(=O)c1ccco1
  A: 0.1%; B: -0.8%; C: -0.8%; D: 1.0%; E: -8.7%; F: 12.6µM*

COc1ccc(NC(=O)c2ccco2)cc1NC(=O)c1cc(Cl)ccc1OC
  A: 2.7%; B: nt; C: -27.8%; D: -5.3%; E: -19.5%; F: -23.6%

COc1ccc(Cl)cc1NC(=O)c1ccco1
  A: 5.01µM*; B: -1.3%; C: 2.2%; D: 1.5%; E: nt; F: -3.0%

COc1ccc(C)cc1NC(=O)c1cc2ccccn2n1
  A: 18.1%; B: nt; C: -50.5%; D: 4.2%; E: -20.7%; F: ?

O=C1c2ccccc2C(=O)N1c1cccc2cnccc12
  A: nt; B: nt; C: nt; D: 6.5%; E: 10.1%; F: nt

CCS(=O)c1ccccc1C(=O)OCC(=O)N1CCC(c2ccccc2)=N1 (centres undefined)
  A: -0.3%; B: 7.7%; C: nt; D: 1.5%; E: -5.9%; F: 0.9%

CC(C)CN1C(=O)CN(S(C)(=O)=O)CC1(C)C(=O)Nc1ccc2c(c1)OCCO2 (centres undefined)
  A: nt; B: nt; C: nt; D: nt; E: nt; F: -4.6%

O=C(Nc1cc(Cl)ccc1-n1cncn1)c1ccco1
  A: 10µM*; B: 1.7%; C: nt; D: 1.8%; E: 1.2%; F: -1.2%

COc1cc2c(s1)c1cnn(Cc3ccccc3F)c(=O)c1n2C
  A: nt; B: nt; C: nt; D: 13.5%; E: -16.2%; F: nt

COCCn1c(SCC(=O)NC2CCCC2)nnc1-c1ccco1
  A: -0.4%; B: 0.7%; C: -1.5%; D: -9.4%; E: -3.5%; F: nt

Cc1nn2c(SCC(=O)c3cccs3)cc(C(C)(C)C)nc2c1-c1ccccc1
  A: 0.3%; B: -2.3%[46.1 µM]; C: -2.9%; D: ?; E: 20.6µM*; F: -3.1%

COc1ccc(C2OC34CCCCC3C(C#N)(C#N)C2(C#N)C(=N)O4)cc1 (centres undefined)
  A: 2.7%; B: 0.2%; C: 0.5%; D: 13.8%; E: 3.3%; F: 11.2µM*

CC1OC23CCCCC2C(C#N)(C(=N)O3)C1(C#N)C#N (centres undefined)
  A: 0.1%; B: -1.1%[46.1 µM]; C: -9.0%; D: -1.1%; E: 26.3%; F: 51.0%

CC(C)OC(=O)n1c(=S)oc2ccccc21
  A: 1.8%; B: -1.8%; C: -9.1%; D: 0.4%; E: 14.0%; F: -3.0%

(next part)
Short keys: A = Nrf2 ARE act; B = TCR activator; C = miR-21 FLuc; D = A549 tox; E = Nrf2 inh; F = ClpP mod
CCCCC(=O)/C=C/n1c(=S)oc2ccccc21
  A: 10µM*; B: 4.1%; C: 20.4%; D: -4.2%; E: ?; F: nt

O=C(NCc1ccc(F)cc1)n1c(-c2ccccc2)c(P(=S)(c2ccccc2)c2ccccc2)c2ccccc21
  A: nt; B: nt; C: nt; D: -15.7%; E: ?; F: nt

Cc1ccc(C)c(-n2nnnc2SCC(=O)NCCC2=CCCCC2)c1
  A: 1.9%; B: 7.7%; C: 3.7%; D: nt; E: 18.4µM*; F: 0.1%

COc1ccc(CNS(=O)(=O)c2ccc(-c3cc(C(F)(F)F)on3)s2)cc1OC
  A: -0.9%; B: nt; C: 22.4%; D: 10.2%; E: ?; F: 1.5%

O=C(C[n+]1ccc(-c2nnc3n2CCC3)cc1)c1ccc(Cl)c(Cl)c1
  A: 0.6%; B: -2.5%[46.1 µM]; C: -1.4%; D: -0.7%; E: 0.4%; F: 28.2µM*

CC(C)(C)c1ccc(OCC(=O)Nc2ccc(-c3nc4cccnc4o3)cc2)cc1
  A: -1.0%; B: -2.3%; C: -7.0%; D: -18.2%; E: -12.9%; F: 12.6µM*

CC(C)C(=O)Nc1ccc(-c2nc3cccnc3o2)cc1
  A: -1.4%; B: -1.2%; C: -1.1%; D: -13.0%; E: -25.9%; F: -19.9%

Cc1ccnc2c(Cl)c(Cl)ccc12
  A: nt; B: nt; C: nt; D: nt; E: nt; F: -0.4%

Cc1nc2cc(-c3cccc(F)c3)nn2c(C)c1CCC(=O)NCCc1ccccc1
  A: 0.7%; B: nt; C: 16.5%; D: 2.1%; E: ?; F: -19.4%

Cc1nc2cc(-c3cccc(F)c3)nn2c(C)c1CCC(=O)NC(C)c1ccccc1 (centres undefined)
  A: 5.7%; B: nt; C: 21.4%; D: -8.1%; E: 3.66µM*; F: 4.1%

COc1ccc(-c2cc3nc(C)c(CCC(=O)NCCc4ccc(Cl)cc4)c(C)n3n2)c(OC)c1
  A: -0.1%; B: nt; C: -4.4%; D: ?; E: ?; F: -17.5%

COc1ccc(CCNC(=O)CCc2c(C)nc3cc(-c4ccccc4OC)nn3c2C)c(OC)c1
  A: 0.2%; B: nt; C: 26.7%; D: -3.4%; E: 23.1µM*; F: -7.4%

COc1cc(NC(=O)CCc2c(C)nc3cc(-c4ccccc4)nn3c2C)cc(OC)c1OC
  A: -1.9%; B: nt; C: 8.0%; D: -2.7%; E: 2.59µM*; F: 0.1%

CCOC(=O)C1(C)CCCN1C(=O)c1ccccc1F (centres undefined)
  A: -0.8%; B: nt; C: nt; D: nt; E: nt; F: 1.8%

O=C(Nc1nc2cc3c(cc2s1)OCCO3)c1ccc([N+](=O)[O-])o1
  A: 7.08µM*; B: -2.1%; C: -34.8%; D: -3.6%; E: 18.9%; F: 1.1%

Cc1ccc(C)c(-c2nnc(NC(=O)c3ccc([N+](=O)[O-])o3)o2)c1
  A: 3.55µM*; B: 3.1%; C: nt; D: -25.4%; E: -8.0%; F: -11.4%
